The source of these data is publication PMC10359466.

For the series, the target named is HsRPA complex: 6xHis-RPA1;HsRPA2;HsRPA3 (Homo sapiens;Homo sapiens;Homo sapiens, UniProt P27694;P15927;P35244 1-616;1-270;1-121, ||). The experiment in a line: MST; 20 mM Tris pH 7.5, 10 mM NaCl, 10 mM MgCl2, 2 mM DTT, 10% glycerol, 0.1 mg/ml BSA, 15 min, room temperature; EMSA 2 nM probe (gel at 4 C), MST 10 nM probe. The conditions noted are these: protein: recombinant;recombinant;recombinant; tags: N-term 6xHis, thrombin site;none;none; copies: 1;1;1; label: 5' Cy5 (MST) or 5' IRDye800 (EMSA); single strand. For orientation: Mobility shift assays separate free from complexed probe on a gel.

TTTTTTTTTTTTTTTTTTTTTTTTTTTTTTTT (ssDNA) [dT32]: the Kd (as a rule, the concentration at which binding is half-saturated) was 15.8 ± 6.6 nM.
